Source: PubChem BioAssay AID602363 (Broad Institute, 2012)
Several values for one entry are separate records, joined by “and”; a condition that tells them apart may be missing. Equal values may be shown once. About 450 (0.13%) of roughly 350,000 compounds were called active.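 The calls were made as follows: active = replicate mean at a twofold rise or more (about +100% in these data); inactive = the rest.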 Only a selection was taken, and actives are over-represented in it overall. The source holds several records for some structures; these can differ, active in one and inactive in another.

experiment: UUG initiation codon usage in yeast – whole organism, S. cerevisiae, single point, plate reader, primary screen (AID 602363);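 also: firefly luciferase made from a UUG start codon reports start codon fidelity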; conditions: S. cerevisiae UUG-firefly luciferase reporter, luminescence/redox ratio; at 18.7 µM; stronger effect = higher value

With C[C@@H]1CN([C@H](C)CO)C(=O)c2cc(C#CC3CCCC3)cnc2O[C@H]1CN(C)C(=O)C1CC1 as the molecule, how does the activity score read?
The activity score was -6.27% (inactive).

With C[C@@H]1CN([C@H](C)CO)C(=O)Cc2cc(NS(=O)(=O)c3ccc(Cl)cc3)ccc2O[C@H]1CN(C)S(=O)(=O)c1cccs1 as the molecule, how does the activity score read?
Its activity score is -8.01% (inactive).

Which activity score does the source give for O=C(Cc1ccncc1)NCC[C@@H]1CC[C@H](NC(=O)Nc2ccc(Cl)cc2)[C@@H](CO)O1 here?
The activity score was 34.2% (inactive).

Which activity score does the source give for CC1CCN(C(=O)/C(=C\c2ccccc2)NC(=O)c2ccccc2)CC1 here?
The activity score was -8.7% (inactive).

Which activity score does the source give for CN1CCN(C(=O)/C(=C\c2cccs2)NC(=O)c2cccs2)CC1 here?
Its activity score is 0.022% (active).

For Cc1ccc(C(=O)N/C(=C\c2cn(C)c3ccccc23)C(=O)N2CCN(C)CC2)cc1, which activity score is on record?
The activity score was 0.501% (inactive).

Which activity score does the source give for CCNC(=O)C[C@@H]1CC[C@@H]2[C@H](COc3ccc(NS(=O)(=O)c4ccccc4C)cc3C(=O)N2C)O1 here?
Its activity score is -8.72% (inactive).

For O=C(C[C@@H]1C=C[C@H](NC(=O)c2ccc3c(c2)OCO3)[C@H](CO)O1)NCc1ccc(Oc2ccccc2)cc1, which activity score is on record?
Its activity score is 8.13% (inactive).

Which activity score does the source give for Cc1noc(C)c1S(=O)(=O)N(C)C[C@@H]1OCCCC[C@H](C)Oc2ccc(NC(=O)NC(C)C)cc2C(=O)N([C@H](C)CO)C[C@@H]1C here?
The activity score was 27% (inactive).

For CC(C)C#Cc1cnc2c(c1)C(=O)N([C@@H](C)CO)C[C@@H](C)[C@@H](CN(C)C(=O)c1cccc(F)c1)O2, which activity score is on record?
The activity score was 0.693% (inactive).

With C[C@@H]1CCCCO[C@@H](CN(C)C(=O)C2CCCCC2)[C@H](C)CN([C@H](C)CO)C(=O)c2cc(NC(=O)CCC(F)(F)F)ccc2O1 as the molecule, how does the activity score read?
The activity score was 21.1% (inactive).

For COc1ccccc1CNC(=O)C[C@@H]1CC[C@H](NC(=O)CN(C)C)[C@@H](CO)O1, which activity score is on record?
Its activity score is -14.1% (inactive).

Which activity score does the source give for COc1ccc(NC(=O)Nc2ccc3c(c2)C(=O)N([C@@H](C)CO)C[C@@H](C)[C@H](CN(C)C(=O)CCC(F)(F)F)OCCCC[C@@H](C)O3)cc1 here?
Its activity score is 5.29% (inactive).

With COc1cccc(-c2ccc3c(c2)O[C@H](CN(C)C(=O)c2ccccc2F)[C@@H](C)CN([C@@H](C)CO)S3(=O)=O)c1 as the molecule, how does the activity score read?
Its activity score is 0.848% (inactive).

With CCCNC(=O)[C@@H]1[C@@H](CO)[C@@H]2Cn3c(ccc(-c4cccc(OC)c4)c3=O)[C@H]1N2C(=O)NCCC as the molecule, how does the activity score read?
The activity score was 4.04% (inactive).

With C[C@H]1CN([C@@H](C)CO)C(=O)Cc2cc(NS(=O)(=O)c3ccc(Cl)cc3)ccc2O[C@H]1CN(C)S(C)(=O)=O as the molecule, how does the activity score read?
The activity score was -4.94% (inactive).

Which activity score does the source give for COc1cc(-c2c(-c3ccc4c(c3)OCO4)noc2C)ccc1F here?
Its activity score is -5.42% (inactive).

For Cc1onc(-c2ccc(Cl)cc2)c1-c1ccnn1S(=O)(=O)c1ccc(Cl)cc1, which activity score is on record?
Its activity score is 174% (active).

With Cn1nc(-c2ccccc2)c(-c2nc(-c3ccc(Cl)cc3)no2)c1Cl as the molecule, how does the activity score read?
Its activity score is -23.8% (inactive).

With C[C@H]1CN([C@@H](C)CO)S(=O)(=O)c2ccc(Br)cc2O[C@H]1CN(C)C(=O)C1CC1 as the molecule, how does the activity score read?
Its activity score is 11.3% (inactive).

With CO[C@@H]1CN(C)C(=O)c2cc(NC(C)=O)ccc2OC[C@H](C)N(C(=O)Cc2ccccn2)C[C@@H]1C as the molecule, how does the activity score read?
Its activity score is -3.54% (inactive).

Which activity score does the source give for C[C@@H]1CN([C@@H](C)CO)C(=O)c2cc(NC(=O)c3ccncc3)ccc2O[C@H]1CN(C)S(=O)(=O)c1ccc(Cl)cc1 here?
The activity score was 0.708% (inactive).

With C[C@@H]1CN([C@H](C)CO)C(=O)c2cc(Br)cnc2O[C@@H]1CN(C)C(=O)C1CC1 as the molecule, how does the activity score read?
The activity score was -8.5% (inactive).

With C[C@@H]1CN([C@@H](C)CO)C(=O)c2cc(Br)cnc2O[C@@H]1CN(C)C(=O)C1CCCCC1 as the molecule, how does the activity score read?
The activity score was 137% (active) and -1.46% (inactive).

With C[C@H]1CN([C@@H](C)CO)C(=O)c2cc(-c3ccncc3)cnc2O[C@@H]1CN(C)C(=O)C1CCCCC1 as the molecule, how does the activity score read?
Its activity score is -11.6% (inactive).

With CCC(=O)N(C)C[C@H]1Oc2cc(-c3cccc(C#N)c3)ccc2S(=O)(=O)N([C@@H](C)CO)C[C@@H]1C as the molecule, how does the activity score read?
Its activity score is 12.2% (inactive).

Which activity score does the source give for CCS(=O)(=O)Nc1ccc2c(c1)C(=O)N(C)[C@H]1CC[C@H](CC(=O)Nc3ccccc3)O[C@@H]1CO2 here?
The activity score was 1.74% (inactive).

With CC(C)NC(=O)N[C@H]1CC[C@@H](CCNC(=O)C2CCC2)O[C@@H]1CO as the molecule, how does the activity score read?
Its activity score is -11.4% (inactive).

With COc1ccccc1-c1ccc([C@@H]2[C@@H](CO)N3CCCCN(S(=O)(=O)c4cn(C)cn4)C[C@H]23)cc1 as the molecule, how does the activity score read?
Its activity score is -0.721% (inactive).

With COc1ccc(NC(=O)N(C)C[C@@H]2Oc3ccc(NC(=O)Cn4cnnn4)cc3C(=O)N([C@H](C)CO)C[C@@H]2C)cc1 as the molecule, how does the activity score read?
Its activity score is 2.52% (inactive).

Which activity score does the source give for O=C(N[C@H]1CC[C@H](CCNS(=O)(=O)c2ccc(F)cc2)O[C@H]1CO)c1cccnc1 here?
Its activity score is -1.19% (inactive).

With C[C@H]1CCCCO[C@@H](CN(C)Cc2ccc3c(c2)OCO3)[C@@H](C)CN([C@@H](C)CO)C(=O)c2cc(NC(=O)Nc3ccc(F)cc3)ccc2O1 as the molecule, how does the activity score read?
The activity score was 18.3% (inactive).
